Experimental data: PubChem BioAssay AID2147 (National Center for Advancing Translational Sciences (NCATS), 2009)
This is a selection; strong and weak results do not stand in their true shares. Inconclusive results are not listed. Active and inactive are the calls of the source. Calls follow the shape of the dose curve; as a rule, active = well fitted inhibition curve with a large enough effect (not every such curve was filed as active); inconclusive = small, poorly fitted or top-dose-only effect, or another doubt; inactive = no such curve, though single readings can be large or run the other way.

Protein sequences, listed by entry. Tags and fused reporters are not part of them. Lines headed by an entry give the natural chain unless they say otherwise; changes in a name come on top.
UniProt B2RXH2: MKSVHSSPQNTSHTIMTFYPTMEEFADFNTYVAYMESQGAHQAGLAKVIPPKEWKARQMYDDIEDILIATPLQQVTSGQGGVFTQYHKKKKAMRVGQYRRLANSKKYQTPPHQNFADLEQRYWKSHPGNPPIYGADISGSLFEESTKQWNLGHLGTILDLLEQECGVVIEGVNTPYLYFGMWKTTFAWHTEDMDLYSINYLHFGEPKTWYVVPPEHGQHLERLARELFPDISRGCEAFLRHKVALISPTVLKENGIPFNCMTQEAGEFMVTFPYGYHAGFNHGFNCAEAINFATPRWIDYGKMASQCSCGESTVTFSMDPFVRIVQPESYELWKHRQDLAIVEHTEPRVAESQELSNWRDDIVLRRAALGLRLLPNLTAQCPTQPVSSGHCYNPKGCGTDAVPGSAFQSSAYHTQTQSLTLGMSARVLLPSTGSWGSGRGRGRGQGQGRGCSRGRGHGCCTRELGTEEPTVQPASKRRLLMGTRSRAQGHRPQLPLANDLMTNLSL

Target: Lysine-specific demethylase 4E (Homo sapiens) (UniProt B2RXH2)
Assay: qHTS Assay for Inhibitors of Human Jumonji Domain Containing 2E (JMJD2E)
Details: JMJD2E catalytic domain, FDH-coupled NADH fluorescence (FDH is formaldehyde dehydrogenase)
Also: nearly all actives have a fitted effect of over 50% in size.
Potency is read from the fitted curve at half-maximal effect.

Row | SMILES | Potency
1 | CC[n+]1c(/C=C/N(C)c2ccccc2)oc2ccccc21 | active: 10 µM
